Values of other authors in PubChem BioAssay AID977608.
What follows is the remainder of the data, with few or none of the hits. Calls of active or inactive are those of the source. Cut-off not given; nearly all actives show IC50 up to about 1400 µM.

Assay: protein-ligand inhibition affinities from structures – PDB-derived complexes (AID 977608)
Details: literature IC50, protein: E3 ubiquitin-protein ligase XIAP, PDB entry 4kju unless noted

Row | SMILES | IC50
1 | CC1=C(C(=O)Nc2ccc3[nH]ncc3c2)[C@H](c2ccc(F)cc2)NC(=O)N1 | active: 250 nM [literature IC50, protein: Beta-adrenergic receptor kinase 1 GRK2, PDB entry 4pnk]
2 | CN[C@@H](C)C(=O)N[C@H]1CN(C(=O)c2ccc(N)cc2)c2ccccc2N(Cc2c(OC)ccc3ccccc23)C1=O | active: 6 nM
